Measured values as given in patent US7829280B2, “Process for reducing interferences in luciferase enzyme assays” (LuminUltra Technologies Ltd., priority 2007, dated 2010).

Protein sequences, listed by entry. Tags and fused reporters are not part of them.
UniProt P08659, whole entry: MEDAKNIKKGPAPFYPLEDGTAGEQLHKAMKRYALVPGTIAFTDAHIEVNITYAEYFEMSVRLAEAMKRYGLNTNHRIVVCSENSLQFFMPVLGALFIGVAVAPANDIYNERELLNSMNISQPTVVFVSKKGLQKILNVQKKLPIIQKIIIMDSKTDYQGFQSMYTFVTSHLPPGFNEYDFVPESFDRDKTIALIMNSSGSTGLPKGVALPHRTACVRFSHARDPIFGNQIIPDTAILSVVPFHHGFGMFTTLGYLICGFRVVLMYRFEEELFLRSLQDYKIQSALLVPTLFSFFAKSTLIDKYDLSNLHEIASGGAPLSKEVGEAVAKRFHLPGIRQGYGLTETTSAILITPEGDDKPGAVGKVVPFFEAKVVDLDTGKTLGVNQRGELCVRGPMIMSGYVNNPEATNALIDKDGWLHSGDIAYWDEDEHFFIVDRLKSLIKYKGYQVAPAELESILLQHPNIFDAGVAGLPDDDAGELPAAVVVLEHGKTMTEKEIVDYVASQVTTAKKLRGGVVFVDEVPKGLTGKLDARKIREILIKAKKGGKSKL

Tests used:
Type in all cases: biochemical
firefly luciferase [1] = target: T1, firefly luciferase (Photinus pyralis, UniProt P08659); test: Firefly luciferase assay of ATP standard solution containing ADBAC, with and without chelating resin pre-treatment; conditions: 10 ng/mL ATP
Experimental: A trisodium phosphate buffer solution containing 10 nanograms ATP per mL and 1000 mg/L of alkyl dimethybenzyl ammonium chloride (ADBAC) was assayed for ATP by mixing 100 microliters of this solution with 100 microliters of luciferase reagent. The light produced in this reaction was measured in a luminometer (Kikkoman C-100 Lumitester). Several dilutions of this ATP solution were also prepared in phosphate buffer and tested. In addition, a 3 mL portion of this solution was mixed with 1 mL of a chelating resin (IRC748, Rohm and Haas Company) and similarly diluted in phosphate buffer, then assayed for ATP.
Table 1 outlines the results obtained from an experiment of assaying a 10 ng/mL ATP standard solution in phosphate buffer containing 1000 mg/L alkyl dimethybenzyl ammonium chloride (ADBAC), following dilution in a phosphate buffer, with and without pre-treatment with the chelating resin IRC-748.

firefly luciferase [2] = target: T1, firefly luciferase; test: Firefly luciferase assay for ATP in ADBAC extract of wastewater effluent, with and without chelating resin; conditions: dilution of ADBAC (1000 mg/L) in ATP extract ⅛, resin 1 mL per 3 mL extract
Experimental: In this experiment, a phosphate buffer also containing 1000 mg/L ADBAC is used to extract ATP from a sample containing microorganisms. 2 mL of a sample from the effluent of a municipal sewage plant was mixed with 2 mL of the ADBAC solution. The ATP released by this process was measured in a Kikkoman luminometer by mixing 100 microliters of the mixture and combining it with 100 microliters of a luciferase assay mixture. Several dilutions of this ATP extract were also prepared in phosphate buffer and tested. In addition, a 3 mL portion of the ATP extract was mixed with 1 mL of a chelating resin (IRC748, Rohm and Haas Company) and similarly diluted in phosphate buffer, then assayed for ATP.
The ATP extract in this experiment was produced by mixing a solution containing 1000 mg/L ADBAC in phosphate buffer. Further dilutions were made in a phosphate buffer. The chelating resin was IRC-748. The resin treatment consisted of mixing 1 mL of resin with 3 mL of extract, then allowing the resin beads to settle before ATP analysis.

firefly luciferase [3] = target: T1, firefly luciferase; test: Combined treatment with soluble (β-cyclodextrin) and insoluble (IRC-748) neutralizers of ADBAC inhibition of firefly luciferase; conditions: for RLU: β-cyclodextrin 3,750 mg/L, resin 1 part per 3 parts
Experimental: Other experiments determined that insoluble agents could be used in combination with soluble agents to cause further reductions in enzyme inhibition. An initial solution containing 7200 mg/L ADBAC and 1 ng ATP per mL was prepared in phosphate buffer. A stronger concentration of ADBAC was used in this experiment to facilitate the observation of the degree of neutralization. Four dilution series were prepared from this stock solution. One series was diluted only in a phosphate buffer. Another identical series was prepared in the phosphate buffer but was pre-treated with IRC-748 chelating resin (3 parts solution treated with one part resin) prior to assaying for ATP. The third dilution series was made in a phosphate buffer containing p-cyclodextrin (a soluble compound that can neutralize ADBAC) so that each member of the series contained 3,750 β-cyclodextrin. The fourth series was prepared in the same way as the third series, except that each member of the series was pre-treated with IRC-748 chelating resin (3 parts solution treated with one part resin) prior to assaying for ATP. All solutions were assayed for ATP by mixing 100 microliters of solution with 100 microliters of luciferase reagent and measuring the light produced in a Kikkoman luminometer.
The experiment described in Example 5 compares the ability of a soluble agent (β-cyclodextrin) and an insoluble agent (chelating resin, IRC-748) and their combination to neutralize the inhibition of the bioluminescent reaction catalyzed by firefly luciferase.
In the first members of the dilutions series, the ATP solution contained 0.5 ng ATP per mL and 3600 mg/L ADBAC. A concentrate of cyclodextrin was added to the ATP solutions in some of the tests to maintain concentration of 3,750 mg/L through the dilution series.

alkyl dimethybenzyl ammonium chloride [ADBAC]
RLU (Relative Light Units) (firefly luciferase [1]; dilution 1/16 in phosphate buffer, 1000 mg/L ADBAC stock, resin 1 mL per 3 mL): 6,036 RLU | RLU (Relative Light Units) (firefly luciferase [1]; dilution none, 1000 mg/L ADBAC in phosphate buffer, resin 1 mL per 3 mL solution): 1,254 RLU | RLU (Relative Light Units) (firefly luciferase [1]; dilution ¼ in phosphate buffer, 1000 mg/L ADBAC stock, resin 1 mL per 3 mL): 16,362 RLU | RLU (Relative Light Units) (firefly luciferase [1]; dilution ½ in phosphate buffer, 1000 mg/L ADBAC stock, resin 1 mL per 3 mL): 1,549 RLU | RLU (Relative Light Units) (firefly luciferase [1]; dilution ⅛ in phosphate buffer, 1000 mg/L ADBAC stock, resin 1 mL per 3 mL): 11,725 RLU | RLU (firefly luciferase [2]): 6,512 RLU | RLU (firefly luciferase [3]; dilution 1/16 of 7200 mg/L ADBAC, 1 ng ATP per mL stock): 423 RLU | RLU (firefly luciferase [3]; dilution ¼ of 7200 mg/L ADBAC, 1 ng ATP per mL stock): 6 RLU | RLU (firefly luciferase [3]; dilution ½ of 7200 mg/L ADBAC, 1 ng ATP per mL stock (3600 mg/L ADBAC, 0.5 ng/mL ATP)): 5 RLU | RLU (firefly luciferase [3]; dilution ⅛ of 7200 mg/L ADBAC, 1 ng ATP per mL stock): 58 RLU | dilution required to prevent suppression of enzyme activity (firefly luciferase [3]; neither resin nor cyclodextrin treatment, 7200 mg/L ADBAC stock): ≥ 16 fold
